# Sampled rows, rich in hits. Any-hit rate of the full collection: about 4.2%.
# MC4R antagonist – human MC4R antagonism in cAMP assay; hit rate 0.48% among 360,000; MC4R-expressing cells, MTII-stimulated cAMP, LANCE TR-FRET; P32245; inhibition, % at 6.5 µM;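 active = inhibition above its plate's cutoff, the mean of tested wells on that plate plus 3 SD, cut at about 29% in these data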;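 also: 0% = Melanotan II alone and 100% = Melanotan II plus saturating MCL0020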
#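 material = U2OS cells stably expressing human melanocortin 4 receptor (MC4R) | also added = Melanotan II challenge | dosing = single nominal compound dose of 6.5 µM | detection = TR-FRET with Eu-cAMP and labeled anti-cAMP, 671 nm | replication = singlicate | timing = compound 30 min, challenge 1 h, detection 1 h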
# UUG fidelity – alters start codon recognition fidelity in yeast | S. cerevisiae UUG-firefly luciferase reporter, luminescence/redox ratio | activity score, % at 18.7 µM | hit rate 0.13% among 350,000 | AID 602363;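 active means replicate mean at a twofold rise or more, about +100% in these data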;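 further: firefly luciferase made from a UUG start codon reports start codon fidelity; reporter light over untreated wells divided by growth signal over untreated wells; some hits fall short of that in this replicate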
# ALR H2O2 inh – human ALR oxidase inhibition via reduced H2O2. P55789. purified ALR, DTT oxidation, H2O2 HRP-luminol luminescence. inhibition, % (no concentration beside the values). 3.8% of 290,000 active. AID 485317;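 active means mean and each replicate at 75% or more; inconclusive means only one of the two met; inactive means neither met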;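 further: stock transfer was 7.5 nL into about 7.5 µL; 0% = neutral wells and 100% = wells with inactivated enzyme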
# NALP1 inh – blocks the NALP1 inflammasome reconstituted in yeast; S. cerevisiae NALP1/ASC/caspase-1 growth, X-gal OD620, 72 h; inhibition, % at 10 µM; hit rate 0.61% among 280,000; AID 2071; in the data active = inhibition mostly above about 24%, no sharp cut-off; inactive = mostly below about 32%
# HDAC3 inhib – inhibitors of human histone deacetylase 3. O15379. recombinant HDAC3, fluorogenic peptide/trypsin coupled, fluorescence. inhibition, % at 8.3 µM. hit rate 0.15% among 320,000. AID 2718; in the data active = inhibition above about 26%, passing the limit was not always enough; inconclusive = no clear call, values can overlap the other calls
# MC4R ag barr – agonists of human melanocortin 4 receptor (MC4R) beta-arrestin; P32245; U2OS MC4R beta-arrestin complementation, luminescence; percent of melanotan II response, DMSO zero; activation, % at 8.9 µM; hit rate 0.98% among 360,000; AID 540308;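 active = activation above a per-plate cutoff, the mean activation of sample wells on that plate plus 3 SD, cut at about 8% in these data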
# Starred values were filed as active, the others as inactive; ? = inconclusive; · = no result given.
# Screens by letter: A = MC4R antagonist; B = UUG fidelity; C = ALR H2O2 inh; D = NALP1 inh; E = HDAC3 inhib; F = MC4R ag barr
> CCOC(=O)Cc1csc(NC(=O)CSc2nccn2C)n1
  A = -0.7; B = -15.0; C = 99.1*; D = 10.7; E = ·; F = 0.3
> CCOC(=O)c1sc(NC(=O)CSc2ncccn2)nc1C
  A = 1.7; B = -20.9; C = -2.8; D = 12.4; E = 5.6; F = -1.0
> CO[C@H]1CN(C)C(=O)c2cc(NC(=O)c3ccno3)ccc2OC[C@@H](C)NC[C@@H]1C
  A = ·; B = 4.7; C = ·; D = ·; E = ·; F = ·
> C[C@@H]1CN([C@H](C)CO)C(=O)c2cc(NC(=O)NC3CCCCC3)ccc2O[C@@H](C)CCCCO[C@@H]1CN(C)C(=O)NC1CCCCC1
  A = ·; B = 10.3; C = ·; D = ·; E = ·; F = ·
> C[C@@H]1CN([C@@H](C)CO)C(=O)Cc2cc(NC(=O)Nc3ccc(C(F)(F)F)cc3)ccc2O[C@@H]1CN(C)Cc1ccc(Oc2ccccc2)cc1
  A = ·; B = 41.8; C = ·; D = ·; E = ·; F = ·
> COc1cccc(N2CCN(c3ccc4nnc(CCC(=O)Nc5ccccc5OC)n4n3)CC2)c1
  A = 6.7; B = -10.7; C = 80.3*; D = 10.8; E = 2.8; F = -3.9
> COc1cccc(N2CCN(c3ccc4nnc(CCC(=O)Nc5ccc(F)cc5)n4n3)CC2)c1
  A = 4.7; B = -28.6; C = 80.3*; D = 10.2; E = -5.4; F = -0.4
> COc1cccc(N2CCN(c3ccc4nnc(CCC(=O)Nc5ccc(F)cc5F)n4n3)CC2)c1
  A = 0.5; B = ·; C = 39.3; D = -11.5; E = 3.7; F = -1.4
> CCc1ccc2c(c1)cc(CN(C(=S)Nc1cccc(C)c1)C1CC1)c1nnnn12
  A = -10.2; B = -7.4; C = -0.1; D = -0.7; E = 0.6; F = 12.7*
> O=C(Cc1ccccc1)NCC(=O)OCC(=O)c1ccccc1Cl
  A = 16.0; B = 1.2; C = 77.1*; D = 27.6; E = 1.7; F = -1.6
> O=C(CNC(=O)c1ccccc1)OCC(=O)c1ccccc1Cl
  A = 13.8; B = 34.7; C = -3.0; D = 15.0; E = 1.0; F = -0.5
> C[C@@H]1CN([C@@H](C)CO)S(=O)(=O)c2ccc(-c3cccc(F)c3)cc2O[C@H]1CN(C)C(=O)C1CC1
  A = ·; B = 0.9; C = ·; D = ·; E = ·; F = ·
> CCCC#Cc1ccc2c(c1)O[C@H](CN(C)Cc1ccncc1)[C@@H](C)CN([C@@H](C)CO)S2(=O)=O
  A = ·; B = 26.9; C = ·; D = ·; E = ·; F = ·
> Nc1ccc(Br)cc1C(=O)O
  A = 4.7; B = -0.7; C = ·; D = -0.5; E = ·; F = 2.1
> Nc1ccc(-c2ccc(N)c(C(=O)O)c2)cc1C(=O)O
  A = -12.2; B = -8.2; C = 82.8*; D = ·; E = -8.2; F = -2.9
> OCC1(Cc2ccc(F)cc2F)CCCN(CCCc2ccccc2)C1 (stereo not given)
  A = 19.0; B = -24.5; C = ·; D = 4.2; E = 1.3; F = 9.5*
> Cc1ccc(N(NC(=O)C(O)(c2ccccc2)c2ccccc2)C(=O)CCl)cc1
  A = 26.8; B = ·; C = 13.3; D = 10.6; E = 0.6; F = 10.4*
> O=C(c1ccccc1)N(NC(=O)C(O)(c1ccccc1)c1ccccc1)c1cccc(F)c1
  A = 3.0; B = ·; C = -1.1; D = 16.2; E = 10.4; F = -1.9
> Cc1ccc(C(O)(C(=O)NN(C(=O)c2ccccc2)c2ccccc2)c2ccc(C)cc2)cc1
  A = 5.2; B = ·; C = 1.1; D = 10.3; E = -5.1; F = 8.3*
> Cc1ccc(-n2nc(C)c(Sc3ccccc3[N+](=O)[O-])c2N)cc1
  A = 24.2; B = ·; C = 87.1*; D = 35.4; E = 12.8; F = 0.0
> C=CCN1C(=O)/C(=C\c2cccc(OC(=O)c3ccco3)c2)SC1=S
  A = -3.1; B = -17.8; C = -4.5; D = 2.3; E = 2.6; F = -1.1
> C=CCN1C(=O)/C(=C\c2ccc(OC(=O)c3ccco3)c(OC)c2)SC1=S
  A = 1.7; B = -5.6; C = -2.7; D = 29.6*; E = 3.0; F = -5.8
> Cc1ncc(CO)c(/C=N/Nc2cccc(Cl)n2)c1O
  A = -14.2; B = -3.6; C = 86.5*; D = 29.3; E = -4.3; F = -1.4
> CN(Cc1ccccc1C#N)S(=O)(=O)c1cccs1
  A = 21.1; B = -12.9; C = -2.8; D = 1.6; E = -3.0; F = 0.5
> N#Cc1nccnc1S(=O)(=O)c1cccs1
  A = ·; B = ·; C = 31.1; D = 23.4*; E = -0.8; F = ·

# One compound at a time, from the list above. Order of values: MC4R antagonist, UUG fidelity, ALR H2O2 inh, NALP1 inh, HDAC3 inhib, MC4R ag barr
# `Nc1ccc(Br)cc1C(=O)O` is entered as 4.7, -0.7, ·, -0.5, ·, 2.1
# `COc1cccc(N2CCN(c3ccc4nnc(CCC(=O)Nc5ccc(F)cc5)n4n3)CC2)c1` is entered as 4.7, -28.6, 80.3*, 10.2, -5.4, -0.4
# `CN(Cc1ccccc1C#N)S(=O)(=O)c1cccs1` is entered as 21.1, -12.9, -2.8, 1.6, -3.0, 0.5

# Other structures
# Screens by letter: A = MC4R antagonist; B = UUG fidelity; C = ALR H2O2 inh; D = NALP1 inh; E = HDAC3 inhib; F = MC4R ag barr
> COc1ccc(-c2csc(N(Cc3ccccc3)C(=O)COc3ccc(Cl)cc3)n2)cc1
  A = 2.5; B = -1.7; C = -2.0; D = -29.7; E = 0.0; F = -0.3
> O=C(COc1ccccc1)N(Cc1ccccc1)c1nc(-c2ccccc2)cs1
  A = 11.0; B = -8.4; C = -1.3; D = -11.0; E = -7.3; F = 21.0*
> CCOC(=O)C1=C(c2ccccc2)NC(=O)NC1c1ccc(O)c(Cl)c1 (stereo not given)
  A = 8.6; B = -5.3; C = 9.1; D = 5.8; E = -1.1; F = 52.2*
> O=C(CCNc1cccc(Cl)c1)c1ccco1
  A = 2.0; B = -6.2; C = 96.9*; D = 19.8; E = 0.4; F = 0.8
> CC1(C)CC(=O)c2cn3nc(C(F)(F)F)nc3nc2C1
  A = 19.7; B = -21.3; C = 3.9; D = 43.4*; E = -6.6; F = -0.5
> CC1(C)CC(=O)c2cn3c(nc2C1)nc1ccccc13
  A = 1.1; B = -20.6; C = -4.6; D = 3.8; E = 3.2; F = 0.8
> CCc1ccccc1N=C1S/C(=C/c2ccccc2OCC(=O)N2CCOCC2)C(=O)N1C
  A = 1.7; B = -0.9; C = -1.8; D = 12.1; E = ?; F = -2.0
> O=C1NN(c2ccccc2)C(=O)/C1=C\c1ccccc1OCC(=O)N1CCOCC1
  A = 13.2; B = -4.7; C = 99.0*; D = 21.6; E = -0.1; F = -1.1
> O=C(C[C@@H]1CC[C@@H]2[C@H](COC[C@@H](O)CN2Cc2ccc(F)cc2)O1)N1CCc2ccccc2C1
  A = ·; B = 18.4; C = ·; D = ·; E = ·; F = ·
> O=C1CC(=O)N(c2ccccc2)c2ccccc21
  A = -5.6; B = -14.1; C = 19.4; D = 5.8; E = 0.6; F = 0.2
> O=C1CC(=O)N(c2ccccc2)N1c1ccccc1
  A = -0.5; B = ·; C = 97.2*; D = 25.2; E = -7.5; F = -4.1
> C[C@H](CO)N1C[C@H](C)[C@H](CN(C)C(=O)Nc2cc(F)ccc2F)Oc2ncc(C#CCN(C)C)cc2C1=O
  A = ·; B = 13.0; C = ·; D = ·; E = ·; F = ·
> Cn1ccnc1SCC(=O)c1ccc(C#N)cc1
  A = -2.6; B = -4.9; C = 50.0; D = -21.4; E = 36.1*; F = -2.3
> COc1ccc(C(=O)CSc2nccn2C)cc1
  A = -0.1; B = -26.9; C = 98.6*; D = 10.9; E = -0.8; F = -2.2
> Cn1ccnc1SCC(=O)c1ccc(OC(F)F)cc1
  A = 7.0; B = -5.8; C = ·; D = -4.5; E = 5.5; F = -1.2
> Cc1cccc(CN2C(=O)N/C(=C/c3ccc(C)s3)C2=O)c1
  A = -15.4; B = ·; C = 2.1; D = 4.3; E = -4.3; F = 9.2*
> Cc1ccc(/C=C2/NC(=O)N(Cc3ccccc3)C2=O)s1
  A = 8.4; B = 2.1; C = -3.8; D = 4.6; E = 3.9; F = -0.5
> C[C@@H]1CN([C@@H](C)CO)C(=O)c2cc(NS(=O)(=O)c3cccs3)ccc2O[C@@H](C)CCCCO[C@@H]1CN(C)Cc1ccc(C(F)(F)F)cc1
  A = ·; B = 3.4; C = ·; D = ·; E = ·; F = ·
> CN1CCN(c2nc(-c3cccc([N+](=O)[O-])c3)nc3ccccc23)CC1
  A = -1.0; B = -11.2; C = -3.6; D = 39.3*; E = 0.0; F = -0.3
> C[C@@H]1CCCCO[C@@H](CN(C)CC2CCCCC2)[C@@H](C)CN([C@@H](C)CO)C(=O)c2cc(NS(=O)(=O)c3cccs3)ccc2O1
  A = ·; B = 5.5; C = ·; D = ·; E = ·; F = ·
> C=C(C)C(=O)Nc1ccc(NC(C)C)cc1
  A = -0.6; B = -16.4; C = 99.0*; D = 21.6; E = 1.0; F = -0.7
> CC(=O)Nc1ccc(NC(=O)C(F)(F)F)cc1
  A = 14.2; B = -5.8; C = -0.3; D = -5.6; E = -7.5; F = 0.0
> CC(C)NC(=O)N(C)C[C@@H]1OCc2ccccc2-c2c(n(C)c3ccccc23)C(=O)N([C@H](C)CO)C[C@@H]1C
  A = ·; B = 6.6; C = ·; D = ·; E = ·; F = ·
> Cc1ccc2c(Cl)c(C)c(N3CCCCC3)nc2n1
  A = 6.1; B = ·; C = 8.4; D = 46.0*; E = 2.5; F = 0.8
> CC(C)NC(=O)N(C)C[C@H]1Oc2ncc(C#CC3CCCC3)cc2C(=O)N([C@H](C)CO)C[C@@H]1C
  A = ·; B = 0.2; C = ·; D = ·; E = ·; F = ·

# Compound activity: PubChem BioAssay, several laboratories
